In patent US10168342B2, “Lipid probes and uses thereof” (THE SCRIPPS RESEARCH INSTITUTE, priority 2015, dated 2019):

Target: T1, AEA-DA lipid probe targets in Neuro2a cells (Mus musculus, UniProt Q02819)
T1 sequence (Q02819 26-459): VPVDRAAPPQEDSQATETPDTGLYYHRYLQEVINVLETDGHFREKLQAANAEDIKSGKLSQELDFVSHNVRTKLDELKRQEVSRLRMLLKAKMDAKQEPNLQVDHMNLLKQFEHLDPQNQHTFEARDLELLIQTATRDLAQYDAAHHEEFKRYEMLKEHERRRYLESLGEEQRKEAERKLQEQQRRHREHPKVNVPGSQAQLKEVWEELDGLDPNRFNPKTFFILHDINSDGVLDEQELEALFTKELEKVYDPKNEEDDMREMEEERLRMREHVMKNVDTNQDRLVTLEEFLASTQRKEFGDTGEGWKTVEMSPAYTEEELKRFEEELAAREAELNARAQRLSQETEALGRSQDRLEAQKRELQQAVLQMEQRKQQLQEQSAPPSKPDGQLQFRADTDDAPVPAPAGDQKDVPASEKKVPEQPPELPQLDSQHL
Settings: FIG. 16I and Table 4

CC(C)c1cc(C(C)C)c(CC(=O)NS(=O)(=O)Oc2c(C(C)C)cccc2C(C)C)c(C(C)C)c1 [avasimibe, reference compound]
interaction with NUCB1 protein: did not interact
